Laboratory results from paper PMC11336009, “DPP-4 inhibitors sitagliptin and PF-00734,200 mitigate dopaminergic neurodegeneration, neuroinflammation and behavioral impairment in the rat 6-OHDA model of Parkinson’s disease” (GeroScience, 2024).

Tested on: DPP-4
Settings: delayed treatment 30 mg/kg daily p.o. day 7 to 45; brain (striatum), day 45

N[C@@H](CC(=O)N1CCn2c(nnc2C(F)(F)F)C1)Cc1cc(F)c(F)cc1F [Sitagliptin]
Brain DPP-4 activity inhibition: > 20%
